The values that follow come from patent US20190022088A1 (RedHill Biopharma Ltd., priority 2017, published 2019).

The assay has as its target T1, Human Matriptase-1 (Homo sapiens, UniProt Q9Y5Y6).
T1 sequence (Q9Y5Y6 615-854 limits assumed): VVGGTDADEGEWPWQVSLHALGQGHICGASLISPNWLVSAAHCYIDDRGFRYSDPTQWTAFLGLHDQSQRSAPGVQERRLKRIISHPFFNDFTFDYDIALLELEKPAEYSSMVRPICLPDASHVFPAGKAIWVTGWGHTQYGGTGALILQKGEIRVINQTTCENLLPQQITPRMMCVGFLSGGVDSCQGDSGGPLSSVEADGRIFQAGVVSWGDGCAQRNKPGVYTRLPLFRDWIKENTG
Put plainly: Ki of WX-UK1, chromogenic substrate cleavage. The conditions noted are these: 37° C., 0.5% BSA, pH=7.4, read-out: Ki (μM) Mean ± SD (n). In kind it is biochemical.

`CCOC(=O)N1CCN(C(=O)C(Cc2cccc(C(=N)N)c2)NS(=O)(=O)c2c(C(C)C)cc(C(C)C)cc2C(C)C)CC1` (stereo not drawn) [WX-UK1, N-α-(2,4,6-triisopropylphenylsulfonyl)-3-amidino-(L)-phenylalanine 4-ethoxycarbonylpiperazide]: the Ki is about 0.2 µM.
